{"source": "patent US3932650A", "about": "“Trans-octahydropyridoindolobenzazepines as central nervous system depressants” (E. I. Du Pont de Nemours & Company, priority 1973, dated 1976)", "system": "phenyl-p-benzoquinone-induced writhing", "assay": "Phenylquinone Writhing (P.Q.W.)", "assay_type": "in vivo, mouse", "settings": "analgesic; more potent than codeine phosphate"}
{"smiles": "CN1CC[C@@H]2[C@@H](C1)c1cccc3c1N2c1ccccc1CC3", "note": "(relative stereo)", "values": [{"measurement": "potency relative to codeine phosphate", "value": "about 10 X"}]}
